Laboratory results from patent US20200123214A1 (published 2020).

Molecular target: hCD40L-Fc
Assay: Octet BLI

Kd: 2.42 nM
B1: hCD40-his (receptor)
chain: EPPTACREKQYLINSQCCSLCQPGQKLVSDCTEFTETECLPCGESEFLDTWNRETHCHQHKYCDPNLGLRVQQKGTSETDTICTCEEGWHCTSEACESCVLHRSCSPGFGVKQIATGVSDTICEPCPVGFFSNVSSAFEKCHPWTSCETKDLVVQQAGTNKTDVVCGPQDRLR
